Patent publication US9278947B2 (dated 2016)

By UniProt entry, the sequences of proteins in these tests, tags left out.
UniProt P14842, whole entry: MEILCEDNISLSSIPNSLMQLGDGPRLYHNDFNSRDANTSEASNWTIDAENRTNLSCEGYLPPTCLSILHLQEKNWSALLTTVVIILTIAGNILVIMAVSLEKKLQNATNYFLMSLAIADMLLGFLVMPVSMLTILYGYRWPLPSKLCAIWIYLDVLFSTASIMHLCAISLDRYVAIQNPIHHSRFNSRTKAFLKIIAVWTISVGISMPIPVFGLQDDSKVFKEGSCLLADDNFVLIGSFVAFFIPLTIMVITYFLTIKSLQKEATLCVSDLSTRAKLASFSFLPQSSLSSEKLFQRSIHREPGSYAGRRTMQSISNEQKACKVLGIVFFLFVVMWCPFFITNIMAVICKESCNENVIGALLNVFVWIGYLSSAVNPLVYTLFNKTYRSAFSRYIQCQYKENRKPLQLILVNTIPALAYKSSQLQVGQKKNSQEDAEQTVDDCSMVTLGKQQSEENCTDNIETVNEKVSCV

Molecular target: rat brain membranes serotonin 5-HT2A receptors (Rattus norvegicus, UniProt P14842)
Conditions: up to 10 μM

| Compound | inhibition of [^3H]ketanserin binding |
| --- | --- |
| C[N+](C)(C)CCCC1(c2ccc(F)cc2)OCc2cc(C#N)ccc21 (centres unmarked) [NMC] | did not inhibit |
| CN(C)CCCC1(c2ccc(F)cc2)OCc2cc(C#N)ccc21 (centres unmarked) [Citalopram, 1-(3-Dimethylamino-propyl)-1-(4-fluoro-phenyl)-1,3-dihydro-isobenzofuran-5-carbonitrile] | did not inhibit |
